Measured values from PubChem BioAssay (NCI).
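All cell lines were grown in 96-well plates and treated with compound for 48 hours. GI50: concentration for 50% inhibition of growth.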

What was measured:
Experiment in all cases: NCI tumour cell line growth inhibition, 48 h; in the data active means GI50 below about 0.43 µM; inactive means the rest
PC-3 prostate = system: PC-3 prostate
SF-295 CNS = system: SF-295 CNS
SF-539 CNS = system: SF-539 CNS
NCI-H460 lung = system: NCI-H460 lung
MDA-N = system: MDA-N
UACC-257 melanoma = system: UACC-257 melanoma
SW-620 colon = system: SW-620 colon
ACHN renal = system: ACHN renal
MOLT-4 leukemia = system: MOLT-4 leukemia
IGROV1 ovarian = system: IGROV1 ovarian
CAKI-1 renal = system: CAKI-1 renal
NCI-H522 lung = system: NCI-H522 lung
A498 renal = system: A498 renal
HOP-92 NSCLC = system: HOP-92 NSCLC
SK-MEL-28 melanoma = system: SK-MEL-28 melanoma
RPMI-8226 leukemia = system: RPMI-8226 leukemia
MCF7 breast = system: MCF7 breast
MDA-MB-435 = system: MDA-MB-435
OVCAR-8 ovarian = system: OVCAR-8 ovarian
A549 NSCLC = system: A549 NSCLC
HOP-62 NSCLC = system: HOP-62 NSCLC
NCI-H226 lung = system: NCI-H226 lung
UACC-62 melanoma = system: UACC-62 melanoma
LOX IMVI melanoma = system: LOX IMVI melanoma
MDA-MB-231 breast = system: MDA-MB-231 breast
OVCAR-4 ovarian = system: OVCAR-4 ovarian
HT29 colon = system: HT29 colon
SK-MEL-5 melanoma = system: SK-MEL-5 melanoma
HCT-116 colon = system: HCT-116 colon
OVCAR-5 ovarian = system: OVCAR-5 ovarian
COLO 205 colon = system: COLO 205 colon
UO-31 renal = system: UO-31 renal
SF-268 CNS = system: SF-268 CNS
K-562 leukemia = system: K-562 leukemia
SR leukemia = system: SR leukemia
T-47D breast = system: T-47D breast
HS 578T breast = system: HS 578T breast
SK-MEL-2 melanoma = system: SK-MEL-2 melanoma
NCI/ADR-RES ovarian = system: NCI/ADR-RES ovarian
RXF 393 renal = system: RXF 393 renal
EKVX NSCLC = system: EKVX NSCLC
M14 melanoma = system: M14 melanoma
SNB-19 CNS = system: SNB-19 CNS
OVCAR-3 ovarian = system: OVCAR-3 ovarian
U251 CNS = system: U251 CNS
SNB-75 CNS = system: SNB-75 CNS
HCT-15 colon = system: HCT-15 colon
TK-10 renal = system: TK-10 renal
MALME-3M melanoma = system: MALME-3M melanoma
786-0 renal = system: 786-0 renal
SK-OV-3 ovarian = system: SK-OV-3 ovarian
SN12C renal = system: SN12C renal
NCI-H23 lung = system: NCI-H23 lung
DU-145 prostate = system: DU-145 prostate
NCI-H322M lung = system: NCI-H322M lung
KM12 colon = system: KM12 colon
BT-549 breast = system: BT-549 breast

Measured: GI50

O=C(O)C1(Nc2ccccc2)CCN(Cc2ccccc2)CC1
inactive: PC-3 prostate > 100 µM | SF-295 CNS > 100 µM | SF-539 CNS > 100 µM | NCI-H460 lung > 100 µM | MDA-N > 100 µM | UACC-257 melanoma > 100 µM | SW-620 colon > 100 µM | ACHN renal > 100 µM | MOLT-4 leukemia > 100 µM | IGROV1 ovarian > 100 µM | CAKI-1 renal > 100 µM | NCI-H522 lung > 100 µM | A498 renal > 100 µM | HOP-92 NSCLC > 100 µM | SK-MEL-28 melanoma > 100 µM | RPMI-8226 leukemia > 100 µM | MCF7 breast > 100 µM | MDA-MB-435 = > 100 µM | OVCAR-8 ovarian > 100 µM | A549 NSCLC > 100 µM | HOP-62 NSCLC > 100 µM | NCI-H226 lung > 100 µM | UACC-62 melanoma > 100 µM | LOX IMVI melanoma > 100 µM | MDA-MB-231 breast > 100 µM | OVCAR-4 ovarian > 100 µM | HT29 colon > 100 µM | SK-MEL-5 melanoma > 100 µM | HCT-116 colon > 100 µM | OVCAR-5 ovarian > 100 µM | COLO 205 colon > 100 µM | UO-31 renal > 100 µM | SF-268 CNS > 100 µM | K-562 leukemia > 100 µM | SR leukemia > 100 µM | T-47D breast > 100 µM | HS 578T breast > 100 µM | SK-MEL-2 melanoma > 100 µM | NCI/ADR-RES ovarian > 100 µM | RXF 393 renal > 100 µM | EKVX NSCLC > 100 µM | M14 melanoma > 100 µM | SNB-19 CNS > 100 µM | OVCAR-3 ovarian > 100 µM | U251 CNS > 100 µM | SNB-75 CNS > 100 µM | HCT-15 colon > 100 µM | TK-10 renal > 100 µM | MALME-3M melanoma > 100 µM | 786-0 renal > 100 µM | SK-OV-3 ovarian > 100 µM | SN12C renal > 100 µM | NCI-H23 lung > 100 µM | DU-145 prostate > 100 µM | NCI-H322M lung > 100 µM | KM12 colon > 100 µM | BT-549 breast > 100 µM
